Literature values as cited in patent US20140314757A1, “PHYTOCANNABINOIDS FOR USE IN THE TREATMENT OF BREAST CANCER” (priority 2011, published 2014).

System: Her2-positive breast cancers
Conditions: most responders eventually relapse; cited from earlier work

Substance: trastuzumab: humanized monoclonal antibody against Her2
- Her2-positive tumours responding: 25%
